According to patent US20250179193A1, “TREATMENT WITH AN ANTIBODY THAT BINDS EGFR AND CMET” (MERUS N.V., priority 2022, published 2025):

Assays:
[1] = system: MKN-45 (EGFR-low, cMET-amplified); assay: ADCC assay (Promega ADCC Bioassay kit), MKN-45 target cells; format: cell-based; conditions: 10 μg/ml to 1 ng/ml, 6 hours
Experimental: (§1) The ADCC activity of the 24 cMet×EGFR bispecifics was tested to the tumor cell lines N87 (EGFR-high, cMET-low) and MKN-45 (EGFR-low, cMET-amplified). The ADCC assay was performed using the Promega ADCC Bioassay kit in 384-well plate format. Antibodies were tested in duplicate at 9 different concentrations in semi-log serial dilutions ranging from 10 μg/ml to 1 ng/ml.
(§2) Antibodies or assay medium control (no IgG) were incubated for 6 hours of induction at 37° C. with ADCC effector cells, and target cells (N87 or MKN-45). Luciferase activity was quantified using Bio-Glo luciferase reagent.

[2] = system: N87 (EGFR-high, cMET-low); assay: ADCC assay (Promega ADCC Bioassay kit), N87 target cells; format: cell-based; conditions: 10 μg/ml to 1 ng/ml, 6 hours
Experimental: as §1, §2

For “cetuximab: reference antibody for the EGFR Fab panel; positive control in ADCC assay”, the ADCC activity [1] was “dose-dependent ADCC activity” and the ADCC activity [2] was “dose-dependent ADCC activity”.
